From paper PMC8878464, “Fenchone Derivatives as a Novel Class of CB2 Selective Ligands: Design, Synthesis, X-ray Structure and Therapeutic Potential” (Molecules, 2022)

By UniProt entry, the sequences of proteins in these tests, tags left out.
UniProt P34972, whole entry: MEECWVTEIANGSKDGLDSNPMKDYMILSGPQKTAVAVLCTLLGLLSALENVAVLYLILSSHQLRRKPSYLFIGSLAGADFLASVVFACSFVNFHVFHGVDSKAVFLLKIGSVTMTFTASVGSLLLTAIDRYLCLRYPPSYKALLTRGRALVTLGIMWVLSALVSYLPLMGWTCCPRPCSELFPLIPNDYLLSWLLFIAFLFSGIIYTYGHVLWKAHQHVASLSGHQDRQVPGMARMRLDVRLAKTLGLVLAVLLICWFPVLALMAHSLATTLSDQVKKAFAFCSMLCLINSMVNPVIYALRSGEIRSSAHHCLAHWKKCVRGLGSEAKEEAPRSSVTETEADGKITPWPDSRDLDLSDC

Assays:
human CB2R (hCB2R) = human CB2R (hCB2R) (Homo sapiens, UniProt P34972); experiment: [3H]CP-55,940 competition displacement binding assay, hCB2R membranes; conditions: displacement of [3H]CP-55,940, membranes of CHO-K1 cells expressing human CB2R
Procedure: The compounds were further characterized using a radioligand binding assay to determine their affinities for CB1R and CB2R based on each test compound’s ability to displace the radiolabeled CB1R/CB2R agonist CP-55,940 from membranes of cells expressing the human CB1R and CB2R [24].
Membranes from cells expressing hCB1R and hCB2R were purchased from Charles River, (Cat#A317 and A318, respectively; OH, USA). Solutions of test compounds ranging from 0.1 nM to 10 mM were prepared in DMSO. The desired amount of membrane preparation was diluted with ice-cold assay buffer (50 mM Tris-HCl, 2.5 mM EDTA, 5 mM MgCl2, 0.1% BSA, pH 7.4) and was vortexed. […] The assays were incubated for 90 min at 30 °C and then immediately filtered on WHATMAN GF/B Filter Paper (Fired) using a Brandel M-24R Harvester followed by six washes with ice cold wash buffer (50 mM Tris-HCl, 2.5 mM EDTA, 5 mM MgCl2, 0.1% BSA, pH 7.4). Radioactivity was detected by adding the Filter Paper directly to the ULTIMA GOLD scintillation cocktail (PerkinElmer, Waltham, MA, USA), incubation at 20 °C for 60 min and then counted using a Tri-Carb 4910TR liquid scintillation counter (PerkinElmer, Waltham, MA, USA).
Each curve represents the mean of three experiments performed in triplicate.

hCB2R = target: T1, hCB2R (Homo sapiens, UniProt P34972); experiment: [35S]GTPγS binding assay at hCB2R; assay type: biochemical; conditions: EC50(nM), increase in [35S]GTPγS binding to hCB2R; two independent experiments in triplicate
T1 construct: purchased Charles River A318; host or cells: CHO-K1 cells
Procedure: The method used for measuring agonist-stimulated binding of [^35S]GTPγS was based on a described protocol. Membranes (5 μg protein) were incubated in GTPγS assay buffer (50 mM Tris HCl (pH 7.4), 0.2 mM EGTA, 9 mM MgCl2, 150 mM NaCl, 1 mg/mL BSA) containing 100 μM GDP, 0.05 nM [^35S]GTPγS and test compounds at various concentrations. Vacuum filtration was used to separate bound ligand from free ligand. We used 10 μM GTPS to determine nonspecific binding. Basal binding was assayed in the absence of the ligand and in the presence of GDP.
Each symbol represents the mean percentage increase in [^35S]GTPγS binding ± SE.

## CCCCCCCCc1ccc(OC)c(C2(O)C3(C)CCC(C3)C2(C)C)c1 (stereo not drawn) [Compound 3h, 2-(2′-Methoxy-5′-octylphenyl)-1,3,3-trimethylbicyclo[2.2.1]heptan-2-ol]
Human CB2R (hCB2R); read-out: Ki (nM) hCB2R
  Ki: 494 nM

## CCCCCCC(C)(C)c1cc(OC)c([C@@H]2C=C(CO)[C@@H]3C[C@H]2C3(C)C)c(OC)c1 [HU-308, reference compound]
hCB2R
  EC50: 1.01 nM
Human CB2R (hCB2R); Ki (nM) hCB2R
  Ki: 1.16 nM

Read-outs that look alike come from different tables or passages of the source.
